Laboratory results taken from PMC7723054.
This is one part of the list.

T1: LIN28A (human?, UniProt Q9H9Z2 1-209)
T1 sequence: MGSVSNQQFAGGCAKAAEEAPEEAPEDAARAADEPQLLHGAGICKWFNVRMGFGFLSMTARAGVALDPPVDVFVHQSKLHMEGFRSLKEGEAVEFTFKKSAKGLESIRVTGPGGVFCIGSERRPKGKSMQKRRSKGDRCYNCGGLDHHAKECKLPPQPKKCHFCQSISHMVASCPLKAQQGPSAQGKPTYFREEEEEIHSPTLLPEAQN

T2: CIRBP (Homo sapiens, UniProt Q14011 1-172)
T2 sequence: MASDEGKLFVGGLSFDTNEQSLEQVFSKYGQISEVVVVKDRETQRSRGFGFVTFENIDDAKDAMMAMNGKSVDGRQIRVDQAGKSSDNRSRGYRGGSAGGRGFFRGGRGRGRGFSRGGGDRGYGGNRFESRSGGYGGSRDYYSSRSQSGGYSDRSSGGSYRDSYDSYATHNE

T3: DHX36 (Homo sapiens, UniProt Q9H2U1 1-1008)
T3 sequence: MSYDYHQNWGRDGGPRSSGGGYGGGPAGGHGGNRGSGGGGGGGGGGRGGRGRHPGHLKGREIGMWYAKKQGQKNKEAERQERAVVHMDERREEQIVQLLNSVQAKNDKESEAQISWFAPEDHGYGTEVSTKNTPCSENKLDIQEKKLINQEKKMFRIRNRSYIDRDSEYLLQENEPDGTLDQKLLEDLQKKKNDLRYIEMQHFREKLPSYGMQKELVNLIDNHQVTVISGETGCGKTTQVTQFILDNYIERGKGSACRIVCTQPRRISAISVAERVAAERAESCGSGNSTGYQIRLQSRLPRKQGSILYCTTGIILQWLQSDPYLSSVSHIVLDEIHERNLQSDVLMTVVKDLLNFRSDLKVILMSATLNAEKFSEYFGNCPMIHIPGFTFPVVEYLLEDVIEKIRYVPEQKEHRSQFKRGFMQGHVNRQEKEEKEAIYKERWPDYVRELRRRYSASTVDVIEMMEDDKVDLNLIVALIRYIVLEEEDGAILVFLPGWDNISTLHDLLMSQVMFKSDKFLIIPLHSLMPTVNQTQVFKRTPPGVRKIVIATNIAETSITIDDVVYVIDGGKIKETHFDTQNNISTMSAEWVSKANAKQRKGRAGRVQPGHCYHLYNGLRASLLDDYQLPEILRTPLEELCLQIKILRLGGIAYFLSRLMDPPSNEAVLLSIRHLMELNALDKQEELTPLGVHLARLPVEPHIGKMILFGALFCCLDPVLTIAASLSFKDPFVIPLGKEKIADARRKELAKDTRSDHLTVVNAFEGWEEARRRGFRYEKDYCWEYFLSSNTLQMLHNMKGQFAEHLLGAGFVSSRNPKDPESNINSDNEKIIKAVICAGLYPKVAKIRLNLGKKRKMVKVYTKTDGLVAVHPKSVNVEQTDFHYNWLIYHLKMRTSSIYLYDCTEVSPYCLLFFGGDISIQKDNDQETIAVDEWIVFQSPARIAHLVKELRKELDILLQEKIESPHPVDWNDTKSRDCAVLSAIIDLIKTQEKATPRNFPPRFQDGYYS


Tests used:
Assay in all cases: FOREST: bead pull-down of RNA structure library v1, barcode microarray; U1A/LIN28A: 20 mM HEPES pH 7.5, 80 mM KCl, 20 mM NaCl, 10% glycerol, 2 mM DTT, 0.1 ug/uL BSA, 4 C; BG4/CIRBP/DHX36: 10 mM Tris-HCl pH 7.5, 100 mM KCl (or LiCl),; high values mean tight binding
[1] = biological target: U1A (Homo sapiens, UniProt P09012)
[2] = biological target: T1, LIN28A
[3] = biological target: T2, CIRBP
[4] = biological target: T3, DHX36

| Binder | binding signal [1] | binding signal [2] | binding signal [3] | binding signal [4] |
| --- | --- | --- | --- | --- |
| hsa-mir-3126 (structured_RNA) RNA: GGGAAAGUCAGCAUGUGAAAUGCAGGGUGGUGUACGAAGUUUCAGCGAAGCACUGGUUAUGAUUUGCAUCGCUGAAGCUUCGUGCAC | 1.21 z-score | 0.118 z-score | -0.253 z-score | -0.303 z-score |
| r(CAG)16: (structured_RNA) RNA: GGGAGCCCAAGGUGAUGCUCUGGUUCAUGGUGUACGAAGUUUCAGCCAGCAGCAGCAGCAGCAGCAGCAGCAGCAGCAGCAGCAGCAGCAGCAGGCUGAAGCUUCGUGCAC | 1.2 z-score | 0.585 z-score | 0.788 z-score | 0.727 z-score |
| hsa-mir-6865 (structured_RNA) RNA: GGGAAACGUGCACAACUUAUAACUUGGCGGUGUACGAAGUUUCAGCACUUCAGAUGCUUCAUGACAGCUGAAGCUUCGUGCAC | 1.21 z-score | -0.167 z-score | -0.535 z-score | -0.925 z-score |
| hsa-mir-3914-2 (structured_RNA) RNA: GGGACACAGGAACGGAACAGUGUAGAGAGGUGUACGAAGUUUCAGCCCUUCUACCAAGUUAAGCAUACUCAUUAGAAGGGCUGAAGCUUCGUGCAC | 1.19 z-score | 0.148 z-score | -0.132 z-score | -0.521 z-score |
| hsa-mir-940 (structured_RNA) RNA: GGGCAGGACACGUCCGUUUAUCAAGUCUGGUGUACGAAGUUUCAGCCAGCCCCGUGUGUUGAGGAAGGAAGGGCUGAAGCUUCGUGCAC | 1.21 z-score | 0.548 z-score | -0.861 z-score | 1.62 z-score |
| hsa-mir-1206 (structured_RNA) RNA: GGGAUAUCAGUCAGAAGGGCGUCUCCCUGGUGUACGAAGUUUCAGCAAGCUCUUGCAGUAGGUUUGCUGAAGCUUCGUGCAC | 1.21 z-score | 0.4 z-score | -0.363 z-score | 1.08 z-score |
| hsa-mir-6726 (structured_RNA) RNA: GGGAAGGGGUCAAACGUGGACAAAACUUGGUGUACGAAGUUUCAGCUCUGCAGGUUCGCACUGAUGCCUGCUCGGCUGAAGCUUCGUGCAC | 1.2 z-score | 0.552 z-score | 1.28 z-score | 0.584 z-score |
| hsa-mir-1324 (structured_RNA) RNA: GGGACUCUCGAUCCAGGCACAUGGAUUCGGUGUACGAAGUUUCAGCGUCCUGCCCUCACUGGGAACCCCCUUCCCUCUGGGUACCAGGCUGAAGCUUCGUGCAC | 1.19 z-score | -1.68 z-score | -1.34 z-score | 0.363 z-score |
| hsa-mir-4430 (structured_RNA) RNA: GGGACCGAGCGGGAUACUUAGCAAUAGUGGUGUACGAAGUUUCAGCGGAGAUCGUACCGCUGAAGCUUCGUGCAC | 1.24 z-score | -0.0612 z-score | 0.966 z-score | 0.698 z-score |
| hsa-mir-4668 (structured_RNA) RNA: GGGACCUCUGCGAGUCAUGAUAUACCGCGGUGUACGAAGUUUCAGCUGUCUUGUAGCCAGGAUAUUGUUUUAAAGAAGCUGAAGCUUCGUGCAC | 1.23 z-score | 1.23 z-score | -0.279 z-score | -0.549 z-score |
| hsa-mir-151b (structured_RNA) RNA: GGGAAUUCCUGCCAGUGCAAAAUGCAAUGGUGUACGAAGUUUCAGCCGAGACACAGAAACAGACACCUGCCCUCGAGCUGAAGCUUCGUGCAC | 1.2 z-score | -0.295 z-score | -0.958 z-score | -0.617 z-score |
| hsa-mir-622 (structured_RNA) RNA: GGGAAGCGGCUUUGGCAUCCCAGUAUACGGUGUACGAAGUUUCAGCUUGAGGAGAGCACCACAGUGGUCAUCACACAGGCUGAAGCUUCGUGCAC | 1.25 z-score | -0.0536 z-score | 0.119 z-score | -0.529 z-score |
| hsa-mir-6839 (structured_RNA) RNA: GGGAACUUCAACCGGUCGCGGUAAUUCGGGUGUACGAAGUUUCAGCCCCAAGCAGGCUUUGUGUGAGCAGUGAGGCUAUUUAUUCACUUGGGUGCGAGCUCACACGAAGCCUGCUUGGGGCUGAAGCUUCGUGCAC | 1.22 z-score | 2.25 z-score | -0.255 z-score | 1.4 z-score |
| hsa-mir-3176 (structured_RNA) RNA: GGGACGUUUUCACCGGCUAACAGGCAAGGGUGUACGAAGUUUCAGCCACUCCCGGGAUCCCCAGGGACGCUGAAGCUUCGUGCAC | 1.24 z-score | -0.388 z-score | -0.68 z-score | -0.477 z-score |
| hsa-mir-493 (structured_RNA) RNA: GGGACGGGCAAGUCAGCGUGAUAUUCUGGGUGUACGAAGUUUCAGCUUCAUUCAUUCGUUUGCACAUUCGGUGAAGCUGAAGCUUCGUGCAC | 2.6 z-score | 0.306 z-score | -0.13 z-score | -0.063 z-score |
| hsa-mir-10b (structured_RNA) RNA: GGGAAGUCACUACCCGCGCACAGAUACUGGUGUACGAAGUUUCAGCUUGUGUGGUAUCCGUAUAGUCACAGGCUGAAGCUUCGUGCAC | 1.24 z-score | 0.155 z-score | -0.537 z-score | -0.845 z-score |
| hsa-mir-7-2 (structured_RNA) RNA: GGGAACAAUGCGCACGCUGCACGUUCUAGGUGUACGAAGUUUCAGCGUUGUUGUCUUACUGCGCUCAACAACGCUGAAGCUUCGUGCAC | 1.23 z-score | -0.565 z-score | -0.923 z-score | -0.276 z-score |
| hsa-mir-486-2 (structured_RNA) RNA: GGGAAUUCAGUGGUGCGAGACUAGUACUGGUGUACGAAGUUUCAGCCCCGAGCUGGGCAGCAUGAAGGGCCUCGGGGCUGAAGCUUCGUGCAC | 1.23 z-score | 0.416 z-score | 0.0376 z-score | 0.553 z-score |
| PARIS_ID37 (structured_RNA) RNA: GGGAAAAGCACGCGGACCUUAUACAUGUGGUGUACGAAGUUUCAGCUAGGACAAUACAGACAGUAACUCCUAGCUGAAGCUUCGUGCAC | 1.19 z-score | -0.776 z-score | -1.13 z-score | 0.423 z-score |
| hsa-mir-3131 (structured_RNA) RNA: GGGAAGUGACGUGACCAAUACCACGCCAGGUGUACGAAGUUUCAGCCCUUUCCCCUCAGACCAAGGGCUGAAGCUUCGUGCAC | 1.19 z-score | -0.932 z-score | -1.1 z-score | 0.479 z-score |
| hsa-mir-5004 (structured_RNA) RNA: GGGAACGGAAAGAACGACGACGCAAACCGGUGUACGAAGUUUCAGCCACGAGAUUGGGUUGUGCAGAGGCUGACACUUGGCUGAAGCUUCGUGCAC | 1.25 z-score | 2.54 z-score | 2.18 z-score | 1.67 z-score |
| hsa-mir-7111 (structured_RNA) RNA: GGGAACUGACAAUCGGGCUUUUGUUAGGGGUGUACGAAGUUUCAGCGGCCAUCUGCUAUUCGUCCACCAACCUGACUUGAUCCGCUGAAGCUUCGUGCAC | 1.24 z-score | -0.348 z-score | -0.231 z-score | -0.17 z-score |
